{"source": "patent US11807624B2", "about": "“Substituted pyrimidinones as agonists of the APJ receptor” (AMGEN INC., priority 2018, dated 2023)", "origin": "cited, not measured here", "conditions": "cited from earlier work", "data": [{"substance": "Apelin-13", "values": [{"measurement": "plasma half-life", "result": "< 5", "unit": "min"}]}]}
